The numbers were not newly measured in US6895396B2, “Neural network methods to predict enzyme inhibitor or receptor ligand potency” (Albert Einstein College of Medicine of Yeshiva University, priority 1998, dated 2005), which cites them from elsewhere.

Chains of the proteins cited; added tags and fusions are not shown. Lines headed by an entry give the natural chain unless they say otherwise; changes in a name come on top.
UniProt P0ABF6: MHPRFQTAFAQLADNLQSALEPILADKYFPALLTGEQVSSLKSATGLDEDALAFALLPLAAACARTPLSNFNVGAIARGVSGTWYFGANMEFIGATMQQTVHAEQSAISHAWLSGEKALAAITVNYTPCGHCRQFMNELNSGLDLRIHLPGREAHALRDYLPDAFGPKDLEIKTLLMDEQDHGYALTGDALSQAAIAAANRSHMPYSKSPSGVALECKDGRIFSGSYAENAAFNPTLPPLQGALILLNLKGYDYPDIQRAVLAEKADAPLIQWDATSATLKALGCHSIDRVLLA

The series addresses cytidine deaminase (Escherichia coli, UniProt P0ABF6). The note with it: binding free energy from the literature; cited from earlier work.

For the compound `O=C1CCN([C@@H]2O[C@H](CO)[C@@H](O)[C@H]2O)C(=O)N1` [3,4,5,6-tetrahydrouridine], the “ΔG/RT (experimental)” value was −16.
Consider `O=C1CCN([C@@H]2O[C@H](CO)[C@@H](O)[C@H]2O)C(=O)N1` [5,6-dihydrouridine], for which the “ΔG/RT (experimental)” value is recorded as −5.7.
